By UniProt entry, the sequences of proteins in these tests, tags left out. Where a name states a change or a piece, a line headed by the entry shows the natural chain unless it says otherwise.
UniProt Q01970: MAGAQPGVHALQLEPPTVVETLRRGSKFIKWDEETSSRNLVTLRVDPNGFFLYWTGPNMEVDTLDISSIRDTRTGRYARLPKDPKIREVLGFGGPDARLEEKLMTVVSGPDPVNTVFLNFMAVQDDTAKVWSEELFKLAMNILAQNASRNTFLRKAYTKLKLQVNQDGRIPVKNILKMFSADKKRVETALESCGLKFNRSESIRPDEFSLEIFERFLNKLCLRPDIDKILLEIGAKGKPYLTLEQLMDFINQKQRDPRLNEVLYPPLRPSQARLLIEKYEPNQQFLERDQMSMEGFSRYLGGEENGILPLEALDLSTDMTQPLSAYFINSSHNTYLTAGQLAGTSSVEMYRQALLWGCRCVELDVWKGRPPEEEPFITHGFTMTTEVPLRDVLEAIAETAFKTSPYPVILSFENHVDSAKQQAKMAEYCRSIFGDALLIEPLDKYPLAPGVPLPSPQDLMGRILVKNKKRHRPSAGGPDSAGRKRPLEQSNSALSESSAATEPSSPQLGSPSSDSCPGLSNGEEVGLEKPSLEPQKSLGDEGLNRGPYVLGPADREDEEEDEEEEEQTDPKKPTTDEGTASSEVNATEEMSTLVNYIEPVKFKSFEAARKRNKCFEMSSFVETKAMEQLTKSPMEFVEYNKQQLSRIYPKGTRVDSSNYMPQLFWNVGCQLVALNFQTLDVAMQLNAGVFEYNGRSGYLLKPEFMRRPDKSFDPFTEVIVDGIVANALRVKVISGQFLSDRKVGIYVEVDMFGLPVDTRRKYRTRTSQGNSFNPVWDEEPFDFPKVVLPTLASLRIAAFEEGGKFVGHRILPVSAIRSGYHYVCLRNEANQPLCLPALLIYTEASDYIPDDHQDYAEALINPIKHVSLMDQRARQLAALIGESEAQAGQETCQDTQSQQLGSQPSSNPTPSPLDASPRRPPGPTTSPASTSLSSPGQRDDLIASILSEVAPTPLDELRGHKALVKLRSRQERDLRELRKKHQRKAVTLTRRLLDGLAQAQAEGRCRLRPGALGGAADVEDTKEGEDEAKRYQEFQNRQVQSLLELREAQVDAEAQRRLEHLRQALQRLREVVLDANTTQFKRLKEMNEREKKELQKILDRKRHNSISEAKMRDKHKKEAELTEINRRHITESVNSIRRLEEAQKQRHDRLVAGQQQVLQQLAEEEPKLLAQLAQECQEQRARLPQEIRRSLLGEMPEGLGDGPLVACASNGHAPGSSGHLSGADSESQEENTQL

In patent US20150218538A1 (UNIVERSITY OF NORTH CAROLINA AT CHAPEL HILL, published 2015):

Columns and labels:
[1] = molecular target: T1, Gαq activated with aluminum fluoride (Gαq-GDP plus aluminum fluoride) (UniProt P50148 35-359); assay: fluorescence polarization; Gαq activated with aluminum fluoride
T1 construct: Purified protein in the active state (GDP + AlF4); PDB 3OHM is cited only for the structure; also called active Gαq
T1 sequence (looked up): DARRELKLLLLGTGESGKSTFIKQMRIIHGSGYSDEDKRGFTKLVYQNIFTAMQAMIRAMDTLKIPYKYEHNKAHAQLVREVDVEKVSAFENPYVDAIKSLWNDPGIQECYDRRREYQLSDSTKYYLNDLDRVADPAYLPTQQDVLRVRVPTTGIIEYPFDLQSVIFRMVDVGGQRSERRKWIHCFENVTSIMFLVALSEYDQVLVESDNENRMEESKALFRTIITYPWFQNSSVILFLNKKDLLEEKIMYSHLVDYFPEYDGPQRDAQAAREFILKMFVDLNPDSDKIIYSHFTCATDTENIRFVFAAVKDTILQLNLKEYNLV

[2] = molecular target: T1, Gαq activated with aluminum fluoride …; assay: cell-based or functional assay
[3] = molecular target: chimeric form of Gαq (Gαq/i), activated with aluminum fluoride; assay: fluorescence polarization; Gαq/i with aluminum fluoride

Kd [1]: ~400 nM
phospholipase activity of PLC-β3 activated by Gαq in lipid vesicles, as a function of TAMRA-27-mer concentration (IC50) [2]: ~1000 nM
Kd [3]: 1600 nM
B1: TAMRA-27-mer (TAMRA-labeled 27-mer, residues 852-878 of PLC-β3 with two mutations Ile860A+M869Nle) (peptide, UniProt Q01970 852-878, looked up)
peptide: HQDYAEALANPIKHVSLMDQRARQLAA
modifications: norleucine (Nle) in place of Met 869 (M869Nle); labeled with TAMRA (5-carboxytetramethylrhodamine), position of the label not stated
notes: range 852-878
